# Results: patent US6194423A, “Fused isoquinolines as dopamine receptor ligands” (priority 1999, dated 2001)
# Test system: D1 receptors
# Assay: Adenylate cyclase activity (cAMP accumulation) in rat striatal homogenates
# Type: biochemical
# Method: Adenylate cyclase activity in rat striatum. The automated HPLC method of Schulz and Mailman was used to measure adenylate cyclase activity by separating cAMP from other labeled nucleotides. […] Triplicate determinations were performed for each drug concentration.
# The reaction proceeded for 15 min at 30° C. and was terminated by the addition of 100 μL of 3% sodium dodecyl sulfate (SDS). […] Samples were centrifuged (10,000×g for 8-9 min), and the supernatants injected on an HPLC system (Waters Z-module or RCM 8×10 module equipped with a C18, 10 micron cartridge). […] The radioactivity in each fraction was determined by a flow-through radiation detector (Inus Systems, Tampa, Fla.) using Cerenkov counting. Sample recovery was based on UV measurement of total unlabeled CAMP peak areas quantified using PE Nelson (Cupertino, Calif.) Model 900 data collection modules and TurboChrom software.
# Data analysis for adenylate cyclase studies. Data for each sample were expressed initially as pmol/mg/min cAMP. Baseline values of cAMP were subtracted from the total amount of cAMP produced in each drug condition. Data for each drug were expressed relative to the stimulation produced by 100 μM DA.
smiles,measurement,value
"CN1CCc2cc(Cl)c(O)cc2[C@@H](c2ccccc2)C1 [SCH23390, reference compound]",blockade of agonist-stimulated cAMP synthesis,These effects were blocked
